Measurements: ChEMBL document CHEMBL4765458, “Synthesis and biological evaluation of organoselenium (NSAIDs-SeCN and SeCF) derivatives as potential anticancer agents” (Eur J Med Chem, 2020)

Assay: Antioxidant activity assessed as DPPH radical scavenging activity incubated for 30 mins under dark condition relative to vitamin C
Type: functional
With `CC(C)Cc1ccc(C(C)C(=O)NCCC[Se]C(F)(F)F)cc1` (stereo not drawn) the fold change (FC) was 0.7.
`CC(C)Cc1ccc(C(C)C(=O)NCCC[Se]C#N)cc1` (stereo not drawn) showed a fold change (FC) of 0.7.
With `COc1ccc2cc([C@H](C)C(=O)NCCC[Se]C#N)ccc2c1` the fold change (FC) was 0.2.
For `Cc1cccc(Nc2ccccc2C(=O)NCCC[Se]C(F)(F)F)c1C`, the fold change (FC) was 0.4.
`C[C@H](C(=O)NCCC[Se]C(F)(F)F)c1cccc(C(=O)c2ccccc2)c1` gave a fold change (FC) of 0.5.
`CC1=C(CC(=O)NCCC[Se]C#N)c2cc(F)ccc2/C1=C\c1ccc([S+](C)[O-])cc1` (stereo not drawn) showed a fold change (FC) of 0.2.
With `CC(C(=O)NCCC[Se]C#N)c1ccc(-c2ccccc2)c(F)c1` (stereo not drawn) the fold change (FC) was 0.2.
With `C[C@H](C(=O)NCCC[Se]C#N)c1cccc(C(=O)c2ccccc2)c1` the fold change (FC) was 0.3.
For `COc1ccc2c(c1)c(CC(=O)NCCC[Se]C(F)(F)F)c(C)n2C(=O)c1ccc(Cl)cc1`, the fold change (FC) was 0.3.
`CC(=O)Oc1ccccc1C(=O)NCCC[Se]C#N` gave a fold change (FC) of 0.6.
For `CC1=C(CC(=O)NCCC[Se]C(F)(F)F)c2cc(F)ccc2/C1=C\c1ccc([S+](C)[O-])cc1` (stereo not drawn), the fold change (FC) was 0.4.
Compound `CC(C(=O)NCCC[Se]C(F)(F)F)c1ccc(-c2ccccc2)c(F)c1` (stereo not drawn) has a fold change (FC) of 0.4.
`Cc1cccc(Nc2ccccc2C(=O)NCCC[Se]C#N)c1C` showed a fold change (FC) of 0.3.
With `CCc1cccc2c3c([nH]c12)C(CC)(CC(=O)NCCC[Se]C#N)OCC3` (stereo not drawn) the fold change (FC) was 0.3.
In the case of `CCc1cccc2c3c([nH]c12)C(CC)(CC(=O)NCCC[Se]C(F)(F)F)OCC3` (stereo not drawn), the fold change (FC) is reported as 0.3.
`COc1ccc2c(c1)c(CC(=O)NCCC[Se]C#N)c(C)n2C(=O)c1ccc(Cl)cc1` showed a fold change (FC) of 0.5.
`CC(=O)Oc1ccccc1C(=O)NCCC[Se]C(F)(F)F` gave a fold change (FC) of 0.8.
Work on `COc1ccc2cc([C@H](C)C(=O)NCCC[Se]C(F)(F)F)ccc2c1` yielded a fold change (FC) of 0.4.
